The results in this text go back to ChEMBL document CHEMBL4411321, “Discovery of Potent, Selective, and Orally Bioavailable Estrogen-Related Receptor-γ Inverse Agonists To Restore the Sodium Iodide Symporter Function in Anaplastic Thyroid Cancer” (J Med Chem, 2019).

The target in experiment [1] is T1, Steroid hormone receptor ERR2 (Homo sapiens, UniProt O95718).
T1 sequence (O95718 whole entry): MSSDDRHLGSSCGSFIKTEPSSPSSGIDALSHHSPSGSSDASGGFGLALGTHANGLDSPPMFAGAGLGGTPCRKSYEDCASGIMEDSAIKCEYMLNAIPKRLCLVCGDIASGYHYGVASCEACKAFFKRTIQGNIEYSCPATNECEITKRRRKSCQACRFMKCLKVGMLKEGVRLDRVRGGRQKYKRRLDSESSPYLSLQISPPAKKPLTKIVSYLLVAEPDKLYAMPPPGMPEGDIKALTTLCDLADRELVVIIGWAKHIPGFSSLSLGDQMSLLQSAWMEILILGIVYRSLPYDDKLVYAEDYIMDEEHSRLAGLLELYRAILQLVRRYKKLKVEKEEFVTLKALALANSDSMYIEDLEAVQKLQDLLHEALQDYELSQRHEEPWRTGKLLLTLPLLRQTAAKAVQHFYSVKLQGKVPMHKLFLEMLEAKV
The experiment in a line: Binding affinity to ERRbeta (unknown origin) using fluorescein-conjugated coactivator PGC-1alpha incubated for 1 hr by TR-FRET assay.

For experiment [2], the target named is T2, Steroid hormone receptor ERR1 (Homo sapiens, UniProt P11474).
T2 sequence (P11474 whole entry): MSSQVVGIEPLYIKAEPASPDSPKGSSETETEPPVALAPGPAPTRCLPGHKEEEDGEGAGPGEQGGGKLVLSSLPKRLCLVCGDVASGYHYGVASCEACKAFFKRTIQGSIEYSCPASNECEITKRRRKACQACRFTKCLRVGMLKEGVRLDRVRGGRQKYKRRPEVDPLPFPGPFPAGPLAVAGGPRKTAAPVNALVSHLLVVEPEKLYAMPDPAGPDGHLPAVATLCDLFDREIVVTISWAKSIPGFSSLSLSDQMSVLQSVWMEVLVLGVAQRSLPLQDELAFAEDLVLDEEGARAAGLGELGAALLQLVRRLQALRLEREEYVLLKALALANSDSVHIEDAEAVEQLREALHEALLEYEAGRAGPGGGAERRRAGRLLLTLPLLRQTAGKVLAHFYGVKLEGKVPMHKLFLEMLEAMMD

Consider `OCCC/C(=C(\c1ccc(Br)cc1)c1ccc(N2CCNCC2)cc1)c1ccccc1`, for which the results for the IC50 in experiment [1] and in experiment [2] were 0.98 µM and 8.65 µM, respectively.
